Molecular target: monomeric actin (ATP•G-actin) from chicken skeletal muscle (chicken) (UniProt P68139)
Assay: SPR; actin (20 nM, about 1000 RU) coupled by EDC/NHS to a CM5 chip; concentration series of analyte; Biacore 8k; 1X HBS-EP+ pH 7.6; Hill equilibrium fit and two-state kinetic fit

- Kd: 300 nM
Substance: RanGTP (RanQ69L loaded with GTP) (from UniProt P62826 1-216) (natural protein)

From publication doi:10.1101/2025.09.24.678334
